# Yeast mating assay B: variants of the scFv Ab-14

Antigen: PDVDLGDISGINAS, a 14-residue peptide of the SARS-CoV-2 spike HR2 region.

Each scFv is VH, the linker GGGGSGGGGSGGGGS, VL, as in the parent Ab-14, and differs from it in the CDRs of the light chain only.
VH: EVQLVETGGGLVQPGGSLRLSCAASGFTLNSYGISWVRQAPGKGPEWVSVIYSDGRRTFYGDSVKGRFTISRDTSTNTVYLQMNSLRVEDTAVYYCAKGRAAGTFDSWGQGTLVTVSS
VL: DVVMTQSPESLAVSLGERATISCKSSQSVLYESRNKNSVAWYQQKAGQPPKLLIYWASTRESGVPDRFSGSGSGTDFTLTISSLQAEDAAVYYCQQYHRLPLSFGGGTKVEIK

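The parent was found by panning a naive human phage display library on the peptide. Designed CDR sequences, proposed from the first random library and measured here. Several design methods are mixed in this list. The assay is AlphaSeq: two haploid yeast populations carry antibody and antigen on their surface. After mating in shaken culture at 30 °C for 16 h, diploids were selected and their barcode pairs sequenced. Scores were corrected for input abundance and mapped to Kd with protein pairs of known affinity run in the same pool. Mating was done six times.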

Substitutions are numbered in sequence along the VL above, starting at 1 (not Kabat). This list holds designs with at most six substitutions. Kd is apparent (estimated from mating counts) and averaged on the log scale over replicates with a signal. Smaller is tighter. An entry "no signal" has no value in the source: the pair was not observed among the diploids in any replicate. This suggests poor binding but is not conclusive.

Variant S25L V29M L30P W56N gave 440 pM (6 of 6 replicates; controls 1 of 18). Variant S25V Q27G V29E Y31E T59V S62E gave 2.8 nM (6 of 6 replicates; controls 1 of 18). Variant K24D V29W W56G showed 290 pM (6 of 6 replicates; controls 0 of 18). Variant S25L V29W L30G W56H gave 1.1 nM (6 of 6 replicates; controls 1 of 18). With L30Q W56D E61F the result was 2.7 nM (6 of 6 replicates; controls 1 of 18).

With L30D K36E S62A Q96W the result was no signal (0 of 6 replicates; controls 0 of 18). Variant S26T S38A showed 100 nM (2 of 6 replicates; controls 0 of 18). Variant Q27W S28L Y31F W56D E61S gave 6.8 nM (6 of 6 replicates; controls 1 of 18). Variant S25V Q27M V29E W56E gave 1.1 nM (6 of 6 replicates; controls 1 of 18). Variant N35F gave 77 nM (2 of 6 replicates; controls 0 of 18).

For S25M Y31M K36C W56D H98V, the assay gave 3.0 nM (6 of 6 replicates; controls 0 of 18). With K24V S25M S33E N37E S62G the result was 250 nM (1 of 6 replicates; controls 0 of 18). Variant S25L S26H W56H S62D gave no signal (0 of 6 replicates; controls 0 of 18). With Q27G V29E Y31F W56D the result was 2.8 nM (6 of 6 replicates; controls 1 of 18). Variant S28K V29L L30P K36W W56H Y97D gave 35 nM (5 of 6 replicates; controls 0 of 18).

Variant S25L S26R V29T showed 2.5 nM (6 of 6 replicates; controls 3 of 18). Variant S25I Y31Q showed 2.7 nM (6 of 6 replicates; controls 3 of 18). For S25L V29Y W56N E61C, the assay gave 1.3 nM (6 of 6 replicates; controls 6 of 18). Variant S25I S26E S38A W56N gave 350 pM (6 of 6 replicates; controls 1 of 18). Variant Q27E R34F showed 420 nM (2 of 6 replicates; controls 0 of 18).

Variant S25L S26E S38N W56E gave 270 pM (6 of 6 replicates; controls 0 of 18). With Q27V V29Y K36T W56E the result was 950 pM (6 of 6 replicates; controls 1 of 18). With K24R V29T K36E the result was no signal (0 of 6 replicates; controls 0 of 18). Variant R34Q L102V showed no signal (0 of 6 replicates; controls 0 of 18). With S25Q W56N H98Q the result was 1.2 nM (6 of 6 replicates; controls 2 of 18).

For S25I Q27E P101Q, the assay gave no signal (0 of 6 replicates; controls 0 of 18). Variant S25L S26Y V29Q W56Q showed 1.1 nM (6 of 6 replicates; controls 0 of 18). Variant S25L S26Q V29E W56E T59K showed 2.1 nM (6 of 6 replicates; controls 0 of 18). With S25V V29D L30P W56N the result was 1.6 nM (6 of 6 replicates; controls 1 of 18). Variant E32P S58D E61L L102I showed 120 nM (5 of 6 replicates; controls 1 of 18).

With S25C K36C W56G the result was 2.0 nM (6 of 6 replicates; controls 4 of 18). Variant S25I Y31T W56N T59C gave 1.0 nM (6 of 6 replicates; controls 0 of 18). Variant S25Q S28L V29G E32G W56E gave 31 nM (6 of 6 replicates; controls 0 of 18). For S25C S28E Y31F W56D, the assay gave 700 pM (6 of 6 replicates; controls 0 of 18). Variant V29T W56Q T59K Q95V S103V showed 460 nM (1 of 6 replicates; controls 0 of 18).

For S25L L30G E32Q W56H S62D, the assay gave 1.0 nM (6 of 6 replicates; controls 1 of 18).

Top 4 of the variants detected in all replicates, tightest first:

S25L S26E S38N W56E: 270 pM (6 of 6 replicates; controls 0 of 18).
K24D V29W W56G: 290 pM (6 of 6 replicates; controls 0 of 18).
S25I S26E S38A W56N: 350 pM (6 of 6 replicates; controls 1 of 18).
S25L V29M L30P W56N: 440 pM (6 of 6 replicates; controls 1 of 18).

Values of this round are not directly comparable with the first-round values of the same sequences. Of ten entries with the parent sequence, four were seen in most replicates (averages 2.2 nM to 240 nM), three in one and three in none, so single entries are noisy. The authors' rule: three or more of the six replicates give a measured affinity, fewer mean a poor binder. As a blank, each scFv also met three strains without target: over all light chain designs, 4% of these pairings were detected, typically at 430 nM and seldom below 38 nM. Also given: how often the same scFv was detected with the empty control strains.

Data: MIT Lincoln Laboratory AlphaSeq set, Li et al. 2023, doi:10.1038/s41467-023-39022-2, as distributed in FLAb.